System: human TH17 cells
Experiment: Inhibition of IL-17 release from human TH17 cells
Type: cell-based
Conditions: isolated human TH17 cells, 4 days culture, IL-17A by HTRF; for IC50: Homo sapiens, 96 h, read-out: pIC50 IL-17 release (converted)
Excerpt: Inhibition of IL-17 Release from Human TH17 Cells (IL-17 Release)
This test is designed to screen compounds for their inhibitory effect on the release of IL-17 from isolated and cultured human TH17 cells.
Peripheral blood mononuclear cells (PBMC) were isolated from heparin treated human whole blood fromhealthy donors by density gradient centrifugation. TH17 cells (CD4+CXCR3-CCR6+) were enriched using a human TH17 Cell Enrichment Kit (Stemcell Technologies) according to the manufacturer's protocol. […] On day 4 supernatants were collected and IL-17A was measured using a Human IL-17 HTRF Assay kit (Cisbio Bioassays) according to the manufacturer's protocol. […] Results

| SMILES | IC50 [nM] | other results |
| --- | --- | --- |
| CS(=O)(=O)c1ccc2c(c1)CN(C(=O)C1(C#N)CC1)C2C(=O)Nc1ccc(C(O)(C(F)(F)F)C(F)(F)F)cc1 (single isomer, unassigned) [Example 405, isomer 2, 2-[(1-Cyanocyclopropyl)carbonyl]-N-[4-(1,1,1,3,3,3-hexafluoro-2-hydroxypropan-2-yl)phenyl]-5-(methylsulfonyl)-2,3-dihydro-1H-isoindole-1-carboxamide] | – | pIC50 IL-17 release (listed as 405, isomer 2): <6.8 |
| COC1(C(=O)N2Cc3cc(S(=O)(=O)C4CC4)ccc3C2C(=O)Nc2ccc(C(O)(C(F)(F)F)C(F)(F)F)cc2)CC1 (stereo not shown) [Example 603, 5-(Cyclopropylsulfonyl)-N-[4-(1,1,1,3,3,3-hexafluoro-2-hydroxypropan-2-yl)phenyl]-2-[(1-methoxycyclopropyl)carbonyl]-2,3-dihydro-1H-isoindole-1-carboxamide] | 31.6 | – |
| CS(=O)(=O)c1ccc2c(c1)CN(C(=O)C1(C#N)CC1)C2C(=O)Nc1ccc(C(O)(C(F)(F)F)C(F)(F)F)cc1 (racemic) [Example 405, racemate, 2-[(1-Cyanocyclopropyl)carbonyl]-N-[4-(1,1,1,3,3,3-hexafluoro-2-hydroxypropan-2-yl)phenyl]-5-(methylsulfonyl)-2,3-dihydro-1H-isoindole-1-carboxamide] | 39.8 | – |
| CS(=O)(=O)c1ccc2c(c1)CN(C(=O)C1(C#N)CC1)C2C(=O)Nc1ccc(C(O)(C(F)(F)F)C(F)(F)F)cc1 (single isomer, unassigned) [Example 405, isomer 1, 2-[(1-Cyanocyclopropyl)carbonyl]-N-[4-(1,1,1,3,3,3-hexafluoro-2-hydroxypropan-2-yl)phenyl]-5-(methylsulfonyl)-2,3-dihydro-1H-isoindole-1-carboxamide] | – | pIC50 IL-17 release (listed as 405, isomer 1): 7.8 |

Source: patent publication US10988445B2 (AstraZeneca AB, priority 2015, dated 2021)
